# Antibody variant affinities, Ab-91 heavy chain, assay 2

Data: MIT Lincoln Laboratory AlphaSeq set, Engelhart et al. 2022, doi:10.1038/s41597-022-01779-4, as distributed in FLAb.

Antigen: PDVDLGDISGINAS, a 14-residue peptide of the SARS-CoV-2 spike HR2 region.

The variants keep the light chain, the linker and the frameworks of Ab-91 (scFv order VL, the linker GGGGSGGGGSGGGGS, VH).
VL: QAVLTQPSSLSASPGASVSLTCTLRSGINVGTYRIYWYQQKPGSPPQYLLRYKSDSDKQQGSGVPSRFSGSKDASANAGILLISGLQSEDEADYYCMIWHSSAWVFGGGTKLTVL
VH: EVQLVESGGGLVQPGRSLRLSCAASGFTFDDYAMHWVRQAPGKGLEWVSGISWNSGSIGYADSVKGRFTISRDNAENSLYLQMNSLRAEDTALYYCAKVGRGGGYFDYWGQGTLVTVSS

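The starting antibody came from a phage panning campaign against this peptide. AAYL51 was designed without a model: most single CDR substitutions and a random sample of double and triple ones. The assay is AlphaSeq: two haploid yeast populations carry antibody and antigen on their surface. Mating (16 h, 30 °C) was followed by selection of diploids and sequencing of their barcodes. Scores were corrected for input abundance and mapped to Kd with protein pairs of known affinity run in the same pool. Each pool was mated in three replicate cultures.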

The whole VH of each variant is written out.
Numbers give log10(Kd / nM), so 0 is 1 nM and 3 is 1 µM. Smaller is tighter.
Where no diploid with the target was found in that replicate, the entry reads "ND": below detection, most likely a poor binder, though not proof of it.

VH	log10 Kd (nM) by replicate	empty controls
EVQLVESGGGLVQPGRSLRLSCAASGWTFDDTAMHWVRQAPGKGLEWVSGIQWNSGSIGYADSVKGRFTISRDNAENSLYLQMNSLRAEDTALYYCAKVGRGGGYFDYWGQGTLVTVSS	4.20 / ND / ND	2/9 (4.09)
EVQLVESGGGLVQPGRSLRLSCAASFSTFDDYAMHWVRQAPGKGLEWVSGISWKSGSIGYADSVKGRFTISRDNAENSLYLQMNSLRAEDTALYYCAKVGRGGGYFDYWGQGTLVTVSS	ND / 5.37 / ND	3/9 (3.84)
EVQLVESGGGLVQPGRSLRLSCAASGFTFDDYAMHWVRQAPGKGLEWVSGISWNSGQIVYADSTKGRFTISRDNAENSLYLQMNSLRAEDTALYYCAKVGRGGGYFDYWGQGTLVTVSS	4.85 / ND / ND	3/9 (4.48)
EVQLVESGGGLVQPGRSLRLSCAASGFTFDDYAMHWVRQAPGKGLEWVSGISWNGGSIGYADSVKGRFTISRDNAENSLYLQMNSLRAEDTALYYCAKVGRGGGYCDIWGQGTLVTVSS	ND / ND / ND	0/9
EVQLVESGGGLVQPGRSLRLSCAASGFTFDDYAMHWVRQAPGKGLEWVSGISWNSGSIGYADSVKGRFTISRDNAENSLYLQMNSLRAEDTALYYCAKFRRGGHYFDYWGQGTLVTVSS	ND / 5.31 / ND	2/9 (3.84)
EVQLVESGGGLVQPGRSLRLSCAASGFTWDDYAMHWVRQAPGKGLEWVSGISWNTGFIGYADSVKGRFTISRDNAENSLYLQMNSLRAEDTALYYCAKVGRGGGYFDYWGQGTLVTVSS	4.02 / ND / ND	0/9
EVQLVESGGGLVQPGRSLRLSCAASGFTFDDYAMHWVRQAPGKGLEWVSGISWNYGSVGYADSVQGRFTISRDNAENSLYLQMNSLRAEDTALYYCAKVGRGGGYFDYWGQGTLVTVSS	3.27 / 3.43 / 2.71	1/9 (3.31)
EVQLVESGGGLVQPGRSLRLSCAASGFTFDDYAMHWVRQAPGKGLEWVSGISWNSGSIGYAWSVKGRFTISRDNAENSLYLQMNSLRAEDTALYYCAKVGRGGGNFTYWGQGTLVTVSS	4.08 / 6.13 / ND	3/9 (4.49)
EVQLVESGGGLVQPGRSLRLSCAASGFTFDDYAMHWVRQAPGKGLEWVSGSSWNSGSIGYAPSCKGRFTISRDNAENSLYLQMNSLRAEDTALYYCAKVGRGGGYFDYWGQGTLVTVSS	ND / ND / ND	1/9 (3.09)
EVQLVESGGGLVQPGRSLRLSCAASEFTFDDPAMHWVRQAPGKGLEWVSGISWNSGSIGYADSVKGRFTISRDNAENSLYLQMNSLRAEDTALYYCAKEGRGGGYFDYWGQGTLVTVSS	ND / ND / 4.52	2/9 (3.99)
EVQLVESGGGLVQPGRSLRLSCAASGNTFKDYAMHWVRQAPGKGLEWVSGISWNSGSIGYADMVKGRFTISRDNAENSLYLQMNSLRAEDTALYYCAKVGRGGGYFDYWGQGTLVTVSS	ND / ND / ND	1/9 (5.67)
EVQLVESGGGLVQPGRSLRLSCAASGFTFDDYAMHWVRQAPGKGLEWVSGISWNSGSIGEADSVKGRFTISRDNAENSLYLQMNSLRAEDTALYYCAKVGKGGGYSDYWGQGTLVTVSS	ND / ND / ND	0/9
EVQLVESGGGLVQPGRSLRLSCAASGFTFDDYAMHWVRQAPGKGLEWVSGISWNSGCIGYADSVKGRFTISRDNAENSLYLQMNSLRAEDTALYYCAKVYRGGGYFSYWGQGTLVTVSS	ND / ND / ND	1/9 (2.91)
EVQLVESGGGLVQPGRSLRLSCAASGFTFDDYAVHWVRQAPGKGLEWVSGISWNSGDIGYADSVKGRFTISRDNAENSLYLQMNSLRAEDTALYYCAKVGRGGGYGDYWGQGTLVTVSS	ND / ND / ND	1/9 (3.50)
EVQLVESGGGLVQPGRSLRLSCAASGFTFDDYAMTWVRQAPGKGLEWVSGISWNSGSPGYADSVKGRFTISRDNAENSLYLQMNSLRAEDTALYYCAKVGRGGGYFDYWGQGTLVTVSS	ND / ND / ND	0/9
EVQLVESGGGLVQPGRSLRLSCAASGFTFFDYEMHWVRQAPGKGLEWVSGISWNSGSIGYADSVKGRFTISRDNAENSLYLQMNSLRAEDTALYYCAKVGRGIGYFDYWGQGTLVTVSS	ND / ND / ND	2/9 (4.26)
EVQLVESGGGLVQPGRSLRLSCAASGFTFDDYAYHWVRQAPGKGLEWVSGISWNSGSIGYADSVKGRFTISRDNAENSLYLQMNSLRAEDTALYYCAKYGRGGGYFDIWGQGTLVTVSS	5.54 / ND / ND	2/9 (3.89)
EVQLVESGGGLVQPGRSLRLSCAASGFTFDDYMMLWVRQAPGKGLEWVSGWSWNSGSIGYADSVKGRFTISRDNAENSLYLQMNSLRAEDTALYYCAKVGRGGGYFDYWGQGTLVTVSS	ND / ND / ND	0/9
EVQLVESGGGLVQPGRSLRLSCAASGFTFDDYAMHWVRQAPGKGLEWVSGISWNSGSIGYADSVNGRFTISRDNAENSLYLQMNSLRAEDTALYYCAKVGRGGGYFDYWGQGTLVTVSS	4.41 / ND / 3.88	1/9 (3.94)
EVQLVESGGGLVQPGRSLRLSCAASGFTWDDYAMHWVRQAPGKGLEWVSGISWNDGSIGYADSVKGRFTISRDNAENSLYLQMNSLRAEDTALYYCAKVGRGGGYFNYWGQGTLVTVSS	ND / ND / ND	2/9 (4.63)

Extract of 2 entries:

VH,log10 Kd (nM) by replicate,empty controls
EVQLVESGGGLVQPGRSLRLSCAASGFTFDDYAMHWVRQAPGKGLEWVSGISWNSGSIGYADSVKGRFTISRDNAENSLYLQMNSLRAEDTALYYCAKFRRGGHYFDYWGQGTLVTVSS,ND / 5.31 / ND,2/9 (3.84)
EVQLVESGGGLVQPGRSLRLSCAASGFTFDDYAMHWVRQAPGKGLEWVSGISWNSGQIVYADSTKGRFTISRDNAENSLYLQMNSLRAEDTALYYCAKVGRGGGYFDYWGQGTLVTVSS,4.85 / ND / ND,3/9 (4.48)

Background: pairings of library AAYL51 with three empty control strains gave a value in 21% of cases (median 4.54, 5th percentile 3.26). Values in that range, when seen in few replicates, are hard to tell from nonspecific mating. Also given: how often the same scFv was detected with the empty control strains, with their mean in brackets.
In this assay the parent's reference entry averaged 1.86; its copy inside this library read 0.88.